Measurements from patent US11759520B1, “Theranostics for protein misfolding diseases” (UNM Rainforest Innovations, priority 2018, dated 2023).

Chains of the proteins cited; added tags and fusions are not shown. Residues count along the entry.
UniProt P05067, 672-711 limits assumed: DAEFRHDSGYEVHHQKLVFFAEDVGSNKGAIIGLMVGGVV
UniProt P05067, 672-713 limits assumed: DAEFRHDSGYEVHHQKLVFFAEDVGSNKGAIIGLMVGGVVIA

How the values were obtained:
Aβ40 fibrils [1] = molecular target: T1, Aβ40 fibrils (Homo sapiens, UniProt P05067); test: Dissociation constant (binding affinity) for Aβ40 fibrils
Aβ40 fibrils [2] = molecular target: T1, Aβ40 fibrils; test: Fluorescence sensing of Aβ40 fibrils over monomers (ADF, LOD); type: binding; conditions: 5 to 1 protein to sensor molar ratio
Protocol: FIGS. 5A and B show the fluorescence profiles of ThT (20 μM) and OPE (1 μM) mixed with Aβ40 fibrils (5 μM) incubated in Tris pH 8.0 (A) or PB pH 7.4 (B) for various numbers of days.
FIGS. 6A-6F provide the excitation and emission spectra of ThT, OPE, and OPE2+ alone and in the presence of Aβ40 monomers or Aβ40 fibrils incubated in the two different buffers. […] However, the small increase is noticeably less than the large fluorescent enhancement observed when the OPEs were mixed with Aβ40 fibrils.
Quantitative assessment of OPE sensor performance towards A1340 fibrils at a 5 to 1 protein to sensor molar ratio was analyzed by calculating an amyloid detector factor using the equation shown in FIG. 13, where F(dye-in-buffer), F(dye+fibrils) and F(dye+monomers) are the integrated emission intensities for sensor alone, sensor in the presence of fibrils, and sensor in the presence of monomers, respectively. Using this equation, positive ADF values indicate selective sensing of fibrils over monomers, while negative ADF values indicate selective sensing of monomers. ADF values close to zero indicate no selective sensing.

Aβ40 monomers = Aβ40 monomers (Homo sapiens, UniProt P05067); test: Photo-oxidation of Aβ40 monomers (DNPH dot blot, RP-HPLC, MS, amino acid analysis); type: biochemical; conditions: exposed to light, RP-HPLC and MS
Protocol: To evaluate the potency of OPE to selectively photo-oxidize Aβ40 fibrils over the monomeric counterpart, the oxidation state of both Aβ40 fibrils and monomers were characterized and were compared to MB. The carbonyl content of the protein was monitored by DNPH dot blot, which increases as a result of histidine photooxidation.^20
DNPH dot blot was carried out on Aβ40 fibrils and monomers incubated in the dark or under irradiation between 0 to 6 hours (FIGS. 9A and 9B). […] In the presence of both photosensitizers, OPE1− and MB, Aβ40 fibrils are characterized by an increase in the carbonyl content during irradiation (FIG. 9B, columns 5 and 8). Slightly higher carbonyl content in Aβ fibrils at time 0 h in the presence of MB could be due to short light exposure during sample preparation causing MB to photosensitize the oxidation of Aβ fibrils.
To confirm this observation, Aβ40 monomers were analyzed by reverse phase HPLC (RP-HPLC), mass spectrometry (MS), and amino acid analysis (FIGS. 10A and B), before and after irradiation in the presence of OPE1− and MB.

Aβ40 fibrils [3] = molecular target: T1, Aβ40 fibrils; test: Effect of oxidation on Aβ40 fibril morphology and secondary structure (TEM, CD); type: biochemical; conditions: irradiated with photosensitizer
Aβ40 fibrils [4] = molecular target: T1, Aβ40 fibrils; test: Fluorescence sensing of Aβ40 fibrils over monomers (ADF, LOD); type: binding
Aβ40 fibrils [5] = molecular target: T1, Aβ40 fibrils; test: Photo-oxidation of Aβ40 fibrils, DNPH dot blot carbonyl content; type: biochemical
Aβ42 peptide = Aβ42 peptide (Homo sapiens, UniProt P05067); test: Fluorescence spectra with unincubated (oligomeric) and incubated (fibrillar) Aβ42 peptide; conditions: ThT 20 μM, OPE 1 μM, Aβ42 5 μM
[6] = Aβ40 fibrils produced in pH 7.4 PB
[7] = Aβ40 fibrils produced in pH 8.0 Tris

SMILES: CCOC(=O)c1ccc(C#Cc2cc(OCCCS(=O)(=O)O)c(C#Cc3ccc(C(=O)OCC)cc3)cc2OCCCS(=O)(=O)O)cc1
- Kd (Aβ40 fibrils [1]; read-out: KD (Dissociation Constant), Aβ40 in PB, Aβ40 fibrils produced in pH 7.4 PB): 270 nM
- Kd (Aβ40 fibrils [1]; read-out: KD (Dissociation Constant), Aβ40 in Tris, Aβ40 fibrils produced in pH 8.0 Tris): 700 nM
- ADF (Amyloid Detection Factor), Aβ40 in PB (Aβ40 fibrils [2]; [6]): 2.3 +/− 0.3
- ADF (Amyloid Detection Factor), Aβ40 in Tris (Aβ40 fibrils [2]; [7]): 2.8 +/− 0.6
- selectivity of photo-oxidation, Aβ40 fibrils vs monomers (Aβ40 monomers): selectively oxidized Aβ40 fibrils
- Aβ40 fibril morphology after irradiation (TEM) (Aβ40 fibrils [3]): fibrils dissociated and broke into shorter structures
- Aβ40 fibril secondary structure after irradiation (CD) (Aβ40 fibrils [3]): no change in the secondary is observed
- LOD (Limit of Detection), Aβ40 in PB (Aβ40 fibrils [4]; [6]): 0.48 ± 0.02 µM
- LOD (Limit of Detection), Aβ40 in Tris (Aβ40 fibrils [4]; [7]): 0.52 ± 0.04 µM
- carbonyl content of Aβ40 fibrils incubated in the dark (Aβ40 fibrils [5]; dark, 0 to 6 hours): no change was observed
- carbonyl content of Aβ40 fibrils during irradiation (Aβ40 fibrils [5]; irradiation 0 to 6 hours): increase in the carbonyl content
- fluorescence increase with fibrillar (incubated) Aβ42 (Aβ42 peptide): large fluorescence increases
- fluorescence increase with oligomeric (unincubated, prefibrillar) Aβ42 (Aβ42 peptide): small fluorescence increases

Read-outs that look alike come from different tables or passages of the source.
